Literature values in paper PMC6719874 (PLoS ONE, 2019).

Assays:
[1] = cancer / malignant solid tumors and Cushing's disease ref 18, 19
[2] = test system: lung cancer, neuroblastoma cell lines, and two colon cancer cell lines

For `CCC(CO)Nc1nc(NCc2ccccc2)c2ncn(C(C)C)c2n1` (centres unmarked) [R-roscovitine, 2-(1-ethyl-2-hydroxyethylamino)-6-benzylamino-9-isopropylpurine], the “effective concentration in clinical trials” value [1] is given as ~ 10 μM and the “concentration range reducing growth” value [2] is given as 20 to 100 µM.
